Literature values as cited in paper PMC2131756, “Grb7 SH2 domain structure and interactions with a cyclic peptide inhibitor of cancer cell migration and proliferation” (BMC Structural Biology, 2007).

Tested on: breast cancer cells
Parameters: method as in PMID 17426702
Conditions: co-treatment with cell permeable G7-18NATE peptide, ref [19]; cited from earlier work

For Herceptin: Trastuzumab (Herceptin), the “change of drug EC50 on co-treatment (in words)” value is listed as “significant reduction of the drug EC50 value”.
